# Assay results as given in publication PMC8484043 (Bioorganic & medicinal chemistry letters, 2021).
# By UniProt entry, the sequences of proteins in these tests, tags left out.
# UniProt Q9NYA1, whole entry: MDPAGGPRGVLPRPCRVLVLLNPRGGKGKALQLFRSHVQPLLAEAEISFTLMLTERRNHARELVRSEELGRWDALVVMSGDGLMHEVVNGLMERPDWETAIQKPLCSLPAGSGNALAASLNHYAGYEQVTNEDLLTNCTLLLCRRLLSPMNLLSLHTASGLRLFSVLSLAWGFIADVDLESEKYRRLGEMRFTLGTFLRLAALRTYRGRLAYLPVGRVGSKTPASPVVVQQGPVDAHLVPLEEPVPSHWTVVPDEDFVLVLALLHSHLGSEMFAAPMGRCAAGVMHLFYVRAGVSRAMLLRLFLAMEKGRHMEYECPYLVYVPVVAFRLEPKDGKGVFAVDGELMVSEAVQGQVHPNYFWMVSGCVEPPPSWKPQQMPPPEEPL
# Molecular target: sphingosine kinase 1 (Homo sapiens, UniProt Q9NYA1)
# Format: biochemical
# Settings: single point assay, 1% DMSO, 100μM ATP
row,Compound,Mean SinglePoint (% inhibition) [Std. Dev (n = 4)]
1,O=C(N/N=C/C1CCCCC1)c1cc(-c2ccc3ccccc3c2)[nH]n1 [4 J],−9 [12.7] % inhibition
2,O=C(N/N=C/c1cccc2ccccc12)c1cc(-c2ccc3ccccc3c2)[nH]n1 [4 K],−7 [8.6] % inhibition
3,O=C(N/N=C/c1cccnc1)c1cc(-c2ccc3ccccc3c2)[nH]n1 [4 M],18 [5.0] % inhibition
4,O=C(N/N=C/c1ccc(Cl)cc1)c1cc(-c2ccc3ccccc3c2)[nH]n1 [4 N],−15 [8.3] % inhibition
5,COc1ccc(/C=N/NC(=O)c2cc(-c3ccc4ccccc4c3)[nH]n2)cc1OC [Inhibitor 4A],57 [9.9] % inhibition
6,O=C(N/N=C/c1ccc2c(c1)OCCO2)c1cc(-c2ccc3ccccc3c2)[nH]n1 [Inhibitor 4B],1 [7.9] % inhibition
7,COc1ccc(/C=N/NC(=O)c2cc(-c3ccc4ccccc4c3)[nH]n2)cc1 [Inhibitor 4C],−2 [5.4] % inhibition
8,COc1ccccc1/C=N/NC(=O)c1cc(-c2ccc3ccccc3c2)[nH]n1 [Inhibitor 4D],4 [4.9] % inhibition
9,COc1cccc(/C=N/NC(=O)c2cc(-c3ccc4ccccc4c3)[nH]n2)c1 [Inhibitor 4E],−3 [7.5] % inhibition
10,COc1ccc2ccccc2c1/C=N/NC(=O)c1cc(-c2ccc3ccccc3c2)[nH]n1 [Inhibitor 4F],6 [4.2] % inhibition
11,O=C(N/N=C/c1ccc(O)cc1)c1cc(-c2ccc3ccccc3c2)n[nH]1 [Inhibitor 4G],17 [7.9] % inhibition
12,O=C(N/N=C/c1cccc(O)c1)c1cc(-c2ccc3ccccc3c2)n[nH]1 [Inhibitor 4H],10 [3.0] % inhibition
13,O=C(N/N=C/c1ccccc1O)c1cc(-c2ccc3ccccc3c2)n[nH]1 [Inhibitor 4I],−6 [6.2] % inhibition
14,O=C(N/N=C/c1ccccc1)c1cc(-c2ccc3ccccc3c2)[nH]n1 [Inhibitor 4L],10 [3.5] % inhibition
15,O=C(N/N=C/c1cccc([N+](=O)[O-])c1)c1cc(-c2ccc3ccccc3c2)[nH]n1 [Inhibitor 4O],−2 [3.8] % inhibition
16,"O=C(N/N=C/c1c(O)ccc2ccccc12)c1cc(-c2ccc3ccccc3c2)n[nH]1 [SKI-1, reference compound]",3 [2.2] % inhibition
